The experiment deals with Adenosine receptor A2a (Homo sapiens, UniProt P29274). The experiment is described as follows: Displacement of [3H][…] from human A2AAR incubated for 60 mins by scintillation counter analysis. Background: Loss of bound radioactivity is the signal in a displacement assay; it reports binding, not function.

The term Ki denotes the dissociation constant of the complex between target and ligand, obtained from inhibition or displacement. The low end stands for a stronger hold on the target, the high end for a looser hold on the target. `Cc1cc(Cn2nnc3c(-c4ccco4)nc(N)nc32)ccc1N` [VIPADENANT] registered a Ki of 0.79 nM.

The record behind these values is ChEMBL document CHEMBL5154845, “Dual-acting antitumor agents targeting the A2A adenosine receptor and histone deacetylases: Design and synthesis of 4-(furan-2-yl)-1H-pyrazolo[3,4-d]pyrimidin-6-amine derivatives” (Eur J Med Chem, 2022).
